# Screens from PubChem.
# Most compounds without a hit are left out; they make up all but 0.42% or so of the library.
# Vif-A3G inh = blocks the Vif interaction with human APOBEC3G; Q9HC16; Potency, µM (titrated, usually from 46.1 µM), for inactives: top-dose activity, negative = active, hits mostly inhibitors; HeLa A3G-eYFP + Vif (tagged APOBEC3G with the HIV-1 protein that degrades it), YFP fluorescence, overnight; hit rate 0.076% among 410,000; AID 602310; further: on the % scale 0 is the no-effect control and ±100 the full control effect; nearly all actives have a fitted effect of over 60% in size
#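 Read-out is eYFP fluorescence (Ex 488/Em 500-530) from Vif-expressing HeLa A3G-eYFP cells; more signal means A3G escaped Vif-mediated degradation. Cells plated overnight, compound pinned in, incubated overnight at 37 deg C.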
# Rango complex inh = Rango-importin beta binding inhibition. Rango CFP/YFP FRET sensor + importin beta, 45 min. Potency, µM (highest dose often 92.2 µM), without a hit: at the highest dose inhibition of complex formation. hit rate 0.031% among 340,000. AID 540263; calls by dose curve;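 further: 0% = DMSO wells and 100% = buffer wells lacking importin beta; nearly all actives have a fitted effect of over 15% in size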
#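 FRET biosensor Rango (snurportin 1 IBB between N-terminal EYFP and C-terminal Cerulean), 50 nM in PBS/1 mM DTT/0.02% Tween-20/0.1% BSA, preincubated 5 min RT with compound; 0.125 microM importin beta added, 45 min RT, CFP/YFP FRET ratio read.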
# Epigenetic reg = regulators of epigenetic silencing causing reporter derepression in mouse cells. murine LDR cells, GFP reporter derepression, 30 h. hit rate 0.2% among 280,000. AID 1865. Potency, µM (doses to about 53.9 µM), for the others: at the highest dose GFP activation, actives largely listed as activators; further: % of control where 0% means no effect; nearly all actives have a fitted effect of over 60% in size
#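 In this reporter-derepression format, murine cells bearing a silenced integrated CMV-GFP locus incubate with test compound (30 h, 37 C), then are washed and imaged; fluorescent objects of 20–120 um count as induced cells.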
# Vif-APOBEC3F blk = inhibitors of Vif-A3F interaction. hit rate 0.2% among 390,000. HeLa A3F-eYFP + Vif (tagged APOBEC3F with the HIV-1 protein that degrades it), YFP fluorescence increase. Potency, µM (top dose mostly 46.1 µM), for the others: at the top dose activity, negative = active. AID 602313; further: % of control where 0% means no effect; nearly all actives have a fitted effect of over 65% in size
#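 Fluorescence increase (Ex 488/Em 500-530) after overnight compound treatment at 37 deg C flags inhibition of Vif-driven A3F-eYFP loss in stable HeLa A3F-eYFP/Vif cells seeded overnight beforehand.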
# Rango release inh = inhibitors of RanGTP-induced Rango-importin beta complex dissociation. Biochemical FRET Rango-importin beta, RanGTP-induced dissociation. Potency, µM (doses to about 46.1 µM), for inactives: top-dose activity change, negative = inhibition. hit rate 0.071% among 340,000; calls by dose curve; further: % of control where 0% means no effect; nearly all actives have a fitted effect of over 45% in size
#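 Recombinant Rango FRET biosensor (EYFP–snurportin 1 IBB–cerulean CFP10) at 0.1 uM premixed with 0.25 uM importin beta in PBS, 1 mM DTT, 0.02% Tween-20, 0.1% BSA. Compound added 5 min; RanGTP-RCC1 (0.6 uM Ran, 2 mM GTP, 0.2 uM RCC1) then triggers release, read at 45 min.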
# Starred values were filed as active, the others as inactive; u = inconclusive; x = no result given. Unless noted, the call rests on the fitted dose curve; in most records, active means well fitted curve in the direction sought with a large enough effect; inconclusive means small, poorly fitted or top-dose-only effect, or another doubt; inactive means no such curve, though single readings can be large; an effect the other way counts as inactive or inconclusive. Potency means the concentration at half of the fitted maximal effect.
1: Cc1cc(C)n(CC(O)COCc2ccccc2)n1 (stereo not given)
2: Cc1cc(C)n(CC(O)COc2cccc(OCC(O)Cn3nc(C)cc3C)c2)n1 (stereo not given)
3: O=C(Cc1ccccc1)N/N=C/c1ccc(-c2ccc([N+](=O)[O-])cc2)o1
4: CC[N+](C)(C)c1ccc(/C=C/c2ccnc3ccccc23)cc1
5: COc1c(C)cccc1C(=O)Nc1ccc(Cl)c(-c2nc3cc(C)ccc3o2)c1
6: Nc1nonc1-c1nc2ccccc2n1CC(=O)Nc1cccc(C(F)(F)F)c1
entry no. | 1 | 2 | 3 | 4 | 5 | 6
Vif-A3G inh | 1.8% | -3.0% | 7.94µM* | 5.9% | 6.0% | u
Rango complex inh | -0.3% | 4.2% | u | x | x | x
Epigenetic reg | 10µM* | -0.5% | u | x | -0.2% | u
Vif-APOBEC3F blk | 2.5% | 12.2% | u | x | 1.3% | 25.1µM*
Rango release inh | -7.6% | -18.4% | u | x | x | x

7: Nc1nonc1-c1nc2ccccc2n1CC(=O)Nc1ccccc1
8: CCC/C=N/NC(=O)c1[nH]c2c([N+](=O)[O-])cccc2c1C
9: CCCCC/C=N/NC(=O)c1[nH]c2ccc([N+](=O)[O-])cc2c1C
10: COc1cc(/C=C(\C#N)c2nc3ccc(C)cc3[nH]2)c([N+](=O)[O-])cc1OC
11: Cc1ccc2nc(/C(C#N)=C/c3ccc(-c4cccc([N+](=O)[O-])c4)o3)[nH]c2c1
12: Cc1ccc2nc(/C(C#N)=C/c3ccc(-c4ccc(F)cc4F)o3)[nH]c2c1
entry no. | 7 | 8 | 9 | 10 | 11 | 12
Vif-A3G inh | -13.4% | 7.08µM* | 1.8% | 0.9% | -23.2% | 11.2µM*
Rango complex inh | 0.9% | 3.3% | 2.6% | 6.1% | u | x
Epigenetic reg | 2.2% | -1.0% | 1.1% | -2.3% | -1.6% | u
Vif-APOBEC3F blk | -5.0% | 9.0% | 10.6% | 0.4% | 10µM* | u
Rango release inh | 7.1% | 5.1% | -15.4% | -25.7% | u | x

13: Cc1c(Cl)cccc1-c1ccc(/C=C(\C#N)c2nc3ccccc3[nH]2)o1
14: N#C/C(=C\c1c(Cl)cccc1Cl)c1nc2ccccc2[nH]1
15: Cc1ccc2nc(/C(C#N)=C\c3cc(O)ccc3[N+](=O)[O-])[nH]c2c1
16: Cn1nc(-c2ccc(F)cc2)nc2c(=O)n(C)c(=O)nc1-2
17: CCN(CC)C(=O)Cn1c(C)c(/C=C/c2cc[n+](C)cc2)c2ccccc21
18: COc1cc(Cl)c(C)cc1NC(=O)CCCN1C(=O)C(c2ccccc2)Oc2cccnc21 (stereo not given)
entry no. | 13 | 14 | 15 | 16 | 17 | 18
Vif-A3G inh | u | -1.4% | u | -9.7% | 7.94µM* | 2.3%
Rango complex inh | x | 2.0% | u | x | u | x
Epigenetic reg | u | -0.3% | -1.2% | x | x | -4.2%
Vif-APOBEC3F blk | 12.6µM* | -0.5% | -14.0% | x | u | -6.8%
Rango release inh | x | u | -15.8% | x | u | x

19: Cc1ccc(CC#N)c(-c2c(CC#N)ccc(C)c2C)c1C
20: Cc1ccc2c(c1C)-c1c(ccc(C)c1C)C(=O)C2=O
21: Cc1[nH]c2ccccc2c1/C=C/c1c(C)[nH]c2ccccc12
22: Cc1[nH]c2ccccc2c1/C=C/c1cc[n+](C)cc1
23: Nc1nc(-c2ccccc2)cn1N
24: COc1ccc(NC(=O)c2sc3nc4c(cc3c2N)CN(Cc2ccccc2)CC4)cc1OC
entry no. | 19 | 20 | 21 | 22 | 23 | 24
Vif-A3G inh | 1.8% | -8.3% | -1.9% | 3.16µM* | -8.1% | x
Rango complex inh | x | 29.1µM* | x | u | u | x
Epigenetic reg | x | x | x | 14.1µM* | -1.1% | 17.8µM*
Vif-APOBEC3F blk | -0.1% | -3.8% | x | u | -2.2% | x
Rango release inh | x | 17.2% | x | u | 20.6µM* | x

25: CC(=O)Nc1sc(C)c(C)c1C(=O)OCC(=O)Nc1ccccc1
26: CCOC(=O)c1[nH]c(C)c(CCC(=O)N2CCN(c3cc(Cl)ccc3C)CC2)c1C
27: COC(=O)CCc1nc2ccccc2[nH]c1=O
28: COC(=O)CSCc1nc2ccccc2[nH]c1=O
29: Cc1c(F)cccc1Cn1cnc2c(cnn2C(C)(C)C)c1=O
30: C=CCn1c(=O)/c(=C/c2cc(OC)c(OC)c(OC)c2)s/c1=C(/C#N)c1nc2ccccc2n1C
entry no. | 25 | 26 | 27 | 28 | 29 | 30
Vif-A3G inh | u | -1.7% | -8.9% | -10.7% | 0.2% | -7.7%
Rango complex inh | 0.0% | x | -2.9% | -4.7% | x | u
Epigenetic reg | x | 7.6% | -1.0% | 25.1µM* | x | u
Vif-APOBEC3F blk | 11.2µM* | 4.8% | -9.9% | u | x | 22.4µM*
Rango release inh | 8.0% | x | 0.4% | u | x | u

31: Cc1ccc(-n2ccn(CC(=O)c3ccc(F)cc3)c(=O)c2=O)cc1C
32: CN(C)c1c(Cl)cc(/C=C/c2ccnc3ccccc23)cc1Br
33: COC(=O)C1=NN(c2cccc3ccccc23)C2C(=O)N(c3ccccc3OC)C(=O)C12 (stereo not given)
34: COc1ccc2[nH]c(C(=O)N/N=C/c3ccc(OC)c(O)c3)cc2c1
35: CCN(CC(=O)Nc1ccccc1SC)Cc1nc2ccccc2c(=O)[nH]1
36: CCN(CC(=O)Nc1ccccc1-c1ccccc1)Cc1nc2ccccc2c(=O)[nH]1
entry no. | 31 | 32 | 33 | 34 | 35 | 36
Vif-A3G inh | 2.8% | -13.0% | 2.2% | 2.51µM* | -5.2% | 7.08µM*
Rango complex inh | x | x | u | -3.5% | 2.4% | 1.6%
Epigenetic reg | 0.0% | x | 1.1% | x | u | 4.0%
Vif-APOBEC3F blk | 0.6% | x | -10.1% | 0.7% | u | -0.7%
Rango release inh | x | x | 11.6µM* | 0.1% | 8.8% | -1.3%

37: CCOC(=O)CNC(=O)C1CCCCC1
38: Cc1ccc2c(c1)-c1nc(-c3ccc4c(c3)NC(=O)CO4)cc(-c3ccc(F)cc3)c1CO2
39: Cc1cc(NC(=O)Nc2nnc(N(C)Cc3ccccc3)s2)ccc1Br
40: CCN(c1ccccc1)c1nnc(NC(=O)Nc2ccc(Br)c(C)c2)s1
41: Cc1ccccc1NC(=O)Nc1nnc(N2CCCCCC2)s1
42: CCc1ccc(N=Nc2ccc(O)c3[nH]cnc23)cc1
entry no. | 37 | 38 | 39 | 40 | 41 | 42
Vif-A3G inh | 3.6% | -2.5% | 12.6µM* | 0.0% | -1.9% | u
Rango complex inh | x | x | x | x | x | 2.8%
Epigenetic reg | x | 0.0% | -1.0% | 0.2% | -6.2% | x
Vif-APOBEC3F blk | x | -0.7% | u | 0.4% | 2.9% | 8.91µM*
Rango release inh | x | x | x | x | x | 0.3%

43: Cc1noc(C)c1COc1cccc(C(=O)OCC(=O)N2CC(=O)Nc3ccccc32)c1
44: O=C1CN(C(=O)COc2cccc(F)c2)c2ccccc2N1
45: Cn1cc(/C=C2\SC(=S)N(NC(=O)c3cccc(Cl)c3)C2=O)c2ccccc21
46: Cn1cc(/C=C2\SC(=S)N(NC(=O)c3ccccc3)C2=O)c2ccccc21
47: COc1ccc2nc(N3CCCCC3)c(C#N)cc2c1
48: COc1ccc2nc(N3CCCC3)c(C#N)cc2c1
entry no. | 43 | 44 | 45 | 46 | 47 | 48
Vif-A3G inh | 2.82µM* | x | u | 5.5% | -7.5% | -14.1%
Rango complex inh | -1.2% | x | u | u | u | u
Epigenetic reg | 3.2% | 0.0% | 2.1% | 4.1% | -0.7% | 0.8%
Vif-APOBEC3F blk | -1.8% | x | 7.94µM* | u | -18.8% | 11.2µM*
Rango release inh | 7.2% | x | 5.5% | u | u | u

# Given tab-delimited: part of the list above.
no.	mol	Vif-A3G inh	Rango complex inh	Epigenetic reg	Vif-APOBEC3F blk	Rango release inh
48	COc1ccc2nc(N3CCCC3)c(C#N)cc2c1	-14.1%	u	0.8%	11.2µM*	u
46	Cn1cc(/C=C2\SC(=S)N(NC(=O)c3ccccc3)C2=O)c2ccccc21	5.5%	u	4.1%	u	u
43	Cc1noc(C)c1COc1cccc(C(=O)OCC(=O)N2CC(=O)Nc3ccccc32)c1	2.82µM*	-1.2%	3.2%	-1.8%	7.2%
44	O=C1CN(C(=O)COc2cccc(F)c2)c2ccccc2N1	x	x	0.0%	x	x
47	COc1ccc2nc(N3CCCCC3)c(C#N)cc2c1	-7.5%	u	-0.7%	-18.8%	u

# Additional compounds follow.
49: CCOc1ccc(/C=C2/SC(=O)NC2=S)cc1
50: CCOc1ccc(N=C2NC(=O)S/C2=C\c2ccc(N(C)C)cc2)cc1
51: Cc1cc2c(cc1S(=O)(=O)N(CCN(C)C)Cc1ccccc1)OCC(=O)N2
52: O=C(OCC12CC3CC(CC(C3)C1)C2)c1ccc(NCc2cc(O)ccc2O)cc1
53: CCOC(=O)CN1C=C(c2ccc3ccccc3n2)C(C[N+](=O)[O-])c2ccccc21 (stereo not given)
entry no. | 49 | 50 | 51 | 52 | 53
Vif-A3G inh | 1.1% | u | 7.6% | -14.9% | 12.6µM*
Rango complex inh | 7.8% | u | x | -0.1% | u
Epigenetic reg | -1.5% | 7.94µM* | -2.8% | x | 2.8%
Vif-APOBEC3F blk | 1.1% | u | -3.9% | 22.4µM* | u
Rango release inh | -3.6% | u | x | 1.5% | u
